Test results: ChEMBL document CHEMBL1155375, “Dioxo-triazines as a novel series of cathepsin K inhibitors” (Bioorg Med Chem Lett, 2010)

Key:
[1] = Metabolic stability in rat plasma assessed as half life; assay type: ADME, cell-free
Homo sapiens = species on record: Homo sapiens; experiment: Metabolic stability in human plasma assessed as half life

For CN(C)CCn1c(=O)c(C#N)nn(-c2cccc(C(F)(F)F)c2)c1=O, the half-life [1] was less than 5 min and the half-life (Homo sapiens) was less than 5 min.
